# Assay results as given in patent US9085549B2, “Compounds for the treatment of neurodegenerative diseases” (ProteoTech Inc., priority 2011, dated 2015).
# Chains of the proteins cited; added tags and fusions are not shown. Residues count along the entry.
# UniProt P10636, 561-689 limits assumed: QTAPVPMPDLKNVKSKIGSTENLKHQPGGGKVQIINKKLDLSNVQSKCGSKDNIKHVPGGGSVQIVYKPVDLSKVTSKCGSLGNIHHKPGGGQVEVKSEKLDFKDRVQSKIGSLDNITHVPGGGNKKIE
# Tests used:
# [1] = test system: BE-M17 human neuroblastoma cells stably transfected with A53T-mutant human α-synuclein; experiment: Thioflavin S staining of rotenone-induced α-synuclein aggregates in cells
# [2] = test system: A53T α-synuclein-expressing BE-M17 cells; experiment: XTT assay: rotenone-induced cell death
# [3] = biological target: TauRD (Homo sapiens (Human), UniProt P10636); experiment: Circular dichroism spectroscopy: tau protein β-sheet formation
SMILES,inhibition of rotenone-induced Thioflavin S-positive inclusions (in words) [1],IC50 [2] [µM],inhibition of rotenone-induced cell death (in words) [2],CD [3]
Oc1ccc(-c2cc(-c3ccc(O)c(O)c3)c(-c3ccc(O)c(O)c3)s2)cc1O,significant disruption/prevention/inhibition,3.6,"significant, dose-dependent inhibition",+
O=C(Nc1ccc(O)c(O)c1)c1cc(O)c(O)cc1Br,significant disruption/prevention/inhibition,–,–,–
